{"sequences": {"note": "Amino acid sequences for entries named in this document (tags omitted).", "UniProt P30551, whole entry": "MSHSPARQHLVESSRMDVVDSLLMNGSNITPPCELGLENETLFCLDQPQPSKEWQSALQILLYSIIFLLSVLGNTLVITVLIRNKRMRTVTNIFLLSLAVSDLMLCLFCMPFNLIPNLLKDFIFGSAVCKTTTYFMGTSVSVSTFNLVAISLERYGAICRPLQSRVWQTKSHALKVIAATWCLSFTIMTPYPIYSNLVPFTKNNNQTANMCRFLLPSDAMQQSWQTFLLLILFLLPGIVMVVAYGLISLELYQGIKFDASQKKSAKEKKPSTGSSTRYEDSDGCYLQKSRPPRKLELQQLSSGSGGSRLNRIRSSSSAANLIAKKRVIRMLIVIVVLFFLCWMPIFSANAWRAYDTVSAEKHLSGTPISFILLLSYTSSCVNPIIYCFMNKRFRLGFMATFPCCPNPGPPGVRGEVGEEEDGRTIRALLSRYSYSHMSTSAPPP"}, "source": "ChEMBL document CHEMBL1127379", "about": "“Three-dimensional molecular shape analysis-quantitative structure-activity relationship of a series of cholecystokinin-A receptor antagonists” (J Med Chem, 1994)", "target": "Cholecystokinin receptor type A (Rattus norvegicus, UniProt P30551)", "assay": "Binding affinity against cholecystokinin type A receptor of rat pancreas"}
{"smiles": "CN1C(=O)C(NC(=O)c2ccccc2Br)N=C(c2ccccc2F)c2ccccc21", "note": "(configuration not stated)", "values": [{"measurement": "IC50", "value": 6.17, "unit": "µM"}]}
{"smiles": "O=C(NC1N=C(c2ccccc2F)c2ccccc2NC1=O)c1ccccc1Cl", "note": "(configuration not stated)", "values": [{"measurement": "IC50", "value": 5.62, "unit": "µM"}]}
